Laboratory results from ChEMBL document CHEMBL4004782, “A review on tacrine-based scaffolds as multi-target drugs (MTDLs) for Alzheimer's disease” (Eur J Med Chem, 2017).

Protein sequences, listed by entry. Tags and fused reporters are not part of them. Lines headed by an entry give the natural chain unless they say otherwise; changes in a name come on top.
UniProt P22303: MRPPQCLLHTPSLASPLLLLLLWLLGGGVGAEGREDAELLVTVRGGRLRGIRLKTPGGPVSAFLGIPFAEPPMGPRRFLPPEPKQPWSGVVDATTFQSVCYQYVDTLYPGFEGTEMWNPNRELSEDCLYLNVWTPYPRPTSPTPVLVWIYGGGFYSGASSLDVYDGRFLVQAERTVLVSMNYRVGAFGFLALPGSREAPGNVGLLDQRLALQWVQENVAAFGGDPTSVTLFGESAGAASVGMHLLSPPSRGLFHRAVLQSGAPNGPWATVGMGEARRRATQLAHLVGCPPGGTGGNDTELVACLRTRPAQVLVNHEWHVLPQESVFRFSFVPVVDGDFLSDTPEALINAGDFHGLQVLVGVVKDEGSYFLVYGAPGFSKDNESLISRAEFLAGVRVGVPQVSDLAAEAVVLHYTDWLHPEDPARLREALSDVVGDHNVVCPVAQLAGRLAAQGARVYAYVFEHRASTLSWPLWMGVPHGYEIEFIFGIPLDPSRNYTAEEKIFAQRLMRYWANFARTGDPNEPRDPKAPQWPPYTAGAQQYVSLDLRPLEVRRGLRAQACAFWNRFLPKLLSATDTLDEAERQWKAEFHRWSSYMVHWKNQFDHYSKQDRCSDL

Target: Acetylcholinesterase (Homo sapiens, UniProt P22303)
Assay: Inhibition of human AchE-induced amyloid beta (1 to 40) aggregation after 48 hrs by thioflavin T fluorescence spectroscopic method

`CC[N+](C)(CC)CCC[n+]1c(-c2ccccc2)c2cc(N)ccc2c2ccc(N)cc21` [PROPIDIUM] was tested, and the IC50 was 45 µM.
